## Binding of CDR-mutated scFvs to a peptide of the spike HR2 region

Source: Engelhart et al. 2022 (doi:10.1038/s41597-022-01779-4), MIT Lincoln Laboratory and A-Alpha Bio; data file from the FLAb repository.

Target: peptide PDVDLGDISGINAS, taken from heptad repeat 2 (HR2) of SARS-CoV-2 spike.

Each scFv is VH, a (GGGGS)3 linker, VL, as in the parent Ab-95, and differs from it in the CDRs of the light chain only.
VH: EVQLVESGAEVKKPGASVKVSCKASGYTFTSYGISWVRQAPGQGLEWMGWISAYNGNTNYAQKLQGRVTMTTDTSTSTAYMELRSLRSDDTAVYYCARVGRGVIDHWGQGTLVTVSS
VL: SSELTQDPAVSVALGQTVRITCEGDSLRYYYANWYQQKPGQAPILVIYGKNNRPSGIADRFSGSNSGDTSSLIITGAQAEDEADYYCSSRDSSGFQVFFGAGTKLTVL

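The parent was found by panning a naive human phage display library on the peptide. AAYL52 was designed without a model: most single CDR substitutions and a random sample of double and triple ones. The assay is AlphaSeq: two haploid yeast populations carry antibody and antigen on their surface. Mating (16 h, 30 °C) was followed by selection of diploids and sequencing of their barcodes. Each replicate has its own calibration line, from reference interactions of the BCL2 family. Each pool was mated in three replicate cultures.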

The parent's light chain CDRs are EGDSLRYYYAN, GKNNRPS, SSRDSSGFQVF; each variant's own CDRs replace them letter for letter. Affinities are written as log10 Kd with Kd in nM; a lower number is a better binder. Averages over replicates are reported, and they cover detected replicates only. "not detected" means that the variant was in the library but no mating with the target was seen in any replicate; the authors take this as a sign of poor binding, and no number exists. In this assay the parent's reference entry averaged 2.31; its copy inside this library read 2.25. Nonspecific signal, from three strains lacking the peptide, appeared in 28% of pairings of library AAYL52, centred on 3.91 (5% of these signals below 2.90); values are not corrected for it.

CDR-L1,CDR-L2,CDR-L3,"mean, log10 nM",detected
YGDSLRYYYAN,GKNNRPQ,SSRDESGFQVF,2.34,3 of 3
EGVSQRYYYAN,GKNNRPD,SSRDSSGFQVF,2.61,3 of 3
TGDSLWYYYAN,GKNNRPS,SSRMSSGFQVF,2.73,1 of 3
EGDSLRTYYAN,GKNNYPS,SSRHSSGFQVF,4.39,2 of 3
AGDSLRYSYAN,GKNNRPS,SSRDSSGFQVF,0.42,3 of 3
EGDSLRYYYAN,NKNHRPS,SSRDSSGFQVF,2.80,3 of 3
EGYSLRYYYAN,GKNNRPS,SSLDSSGFWVF,5.09,1 of 3
EGDSLRYYYMN,GKNNRPS,SSRGSSGFQVF,3.21,3 of 3
WGDSMRYYYAN,GKDNRPS,SSRDSSGFQVF,3.63,1 of 3
AGDSLRYHNAN,GKNNRPS,SSRDSSGFQVF,1.06,3 of 3
EGDSLRYYYAN,GKNNGPS,SSRDSSGYQEF,4.84,3 of 3
EGDWLRYYYAN,DKNNRPS,SSRDSSGFQVG,1.96,1 of 3
AGDSLRYYYAN,GKENRPS,SSYDSSGFQVF,not detected,0 of 3
EGDSLRYYYAN,SKDNRPS,SSCDSSGFQVF,4.81,2 of 3
EGDSLRNYYAN,GKNNRPS,ESRDSSSFQVF,2.31,3 of 3
EGSSLRYYYAN,GKNNRPS,SSRDSSWSQVF,1.67,3 of 3
ENDSLRYYYAM,GKNNRPS,SSRLSSGFQVF,3.53,1 of 3
EGDWLYYYYAN,GKNNRPS,SSRDSSKFQVF,not detected,0 of 3
EGDSLRAYHAK,GKNNRPS,SSRDSSGFQVF,3.43,2 of 3
EGDSLRYYYAN,GQNKRPS,SSRDMSGFQVF,2.56,3 of 3
EIDSLRYYYAN,GKNNRES,SSRDSSGFQAF,not detected,0 of 3
EGDSLRYYSAG,GKWNRPS,SSRDSSGFQVF,not detected,0 of 3
EGDLLRYYYAN,GKNNRKS,SSRDSSGFQVI,2.87,1 of 3
ETDSLRYGYAN,GKNNRPS,SGRDSSGFQVF,2.16,3 of 3
EGDGLRYYYAN,GKTNRPS,SSRYSSGFQVF,4.50,1 of 3
EGDSLTYYYAN,GKNNRPS,PSRDSSGGQVF,3.32,3 of 3
EGDSLRYYYAN,GKNNGPR,SSRDSCGFQVF,4.75,1 of 3
EADSLRYYYAN,GKNARPS,SSRDSAGFQVF,3.92,2 of 3
EGDSDRHYYAN,GKNNRPS,SSRDSSWFQVF,not detected,0 of 3
EFDSLRYYYAN,GDNNRPS,SSRDSSGHQVF,3.13,3 of 3
EGDSDRYYYQN,GKNNRPS,SSRDSSHFQVF,3.87,3 of 3
EGDSLRYYYAN,GKNNRTS,MSRDSSGFGVF,3.39,1 of 3
GGDSLRYYAAN,GKNNRPS,SSRDSSGFGVF,2.11,3 of 3
TGDSLRYYYAN,GKNNRPS,SSRKSFGFQVF,2.55,3 of 3
QHDSLRYYYAN,GKNNRPS,SSRDSSGFQVA,2.52,3 of 3
EGDSLRYYYAN,GKNNCPS,SSRDSSGFQVI,3.72,2 of 3
EGDSTRYYYAN,WKNNRPS,SSRDSSGFQVF,3.45,2 of 3
EGDSLLNYYAN,GKNNRPS,SSRDSSGFSVF,2.27,3 of 3
EGDTSRYYYAN,GKNNRPL,SSRDSSGFQVF,3.98,3 of 3
EGDSLRYVYAN,GKNNRRS,ISRDSSGFQVF,not detected,0 of 3
EGDSLRYYYAN,GKNNRPS,SIRDSAGFQVF,2.40,3 of 3
KGGSLFYYYAN,GKNNRPS,SSRDSSGFQVF,2.99,3 of 3
EGDRLRYYYAW,GKNNRPS,SSRDSSGFQVC,not detected,0 of 3
EGVSLRYYYAN,GKNNRPS,SSRDSSVFQVM,3.73,3 of 3
EGDSLRYYYAN,GKNKRPL,YSRDSSGFQVF,3.77,3 of 3
EGDGLRYYVAN,NKNNRPS,SSRDSSGFQVF,4.03,1 of 3
EGISVRYYYAR,GKNNRPS,SSRDSSGFQVF,4.10,1 of 3
EGDSRRYYYEN,GKNNTPS,SSRDSSGFQVF,4.30,1 of 3

7 of these entries, quoted again:

CDR-L1,CDR-L2,CDR-L3,"mean, log10 nM",detected
EGDSLRAYHAK,GKNNRPS,SSRDSSGFQVF,3.43,2 of 3
TGDSLWYYYAN,GKNNRPS,SSRMSSGFQVF,2.73,1 of 3
EGDSLRYYYAN,GKNNRTS,MSRDSSGFGVF,3.39,1 of 3
AGDSLRYYYAN,GKENRPS,SSYDSSGFQVF,not detected,0 of 3
EGDSLRYYYAN,GKNNRPS,SIRDSAGFQVF,2.40,3 of 3
EGDSLLNYYAN,GKNNRPS,SSRDSSGFSVF,2.27,3 of 3
EGISVRYYYAR,GKNNRPS,SSRDSSGFQVF,4.10,1 of 3